{"source": "patent US20180086821A1", "about": "(MAYO FOUNDATION FOR MEDICAL EDUCATION AND RESEARCH, published 2018)", "molecular_target": "rabbit actin (rabbit, UniProt P68135 3-377)", "assay": "direct ELISA, antigen coated at 5 µg/ml"}
{"binder": "mAb A2B5 (antibody, mouse IgM, V domains shown, Mouse IgM kappa) VH: EVKLVESGGGLVQPGGSLRLSCATSGFTFSDFYMEWVRQPPGKRLEWIAASRNKANDYTTEYSASVKGRFIVSRDTSQSILYLQMNALRAEDTAIYYCARDARQLGLPAWFAYWGQGTLVTVSA VL: QIVLTQSPAIMSASPGEKVTISCSASSSVSYMYWYQQKPGSSPKPWIYRTSNLASGVPARFSGSGSGTSYSLTISSMEAEDAATYYCQQYHSYPLTFGAGTKLELKR", "values": [{"measurement": "binding result", "value": "no binding (tested: mAbs at 2 µg/ml)"}]}
